## Ab-14 light chain CDR variants: yeast mating affinities

Target peptide (SARS-CoV-2 spike, HR2 region): PDVDLGDISGINAS

Parent: Ab-14, a human scFv built as VH, the linker GGGGSGGGGSGGGGS, VL. Only the CDRs of the light chain vary.
VH: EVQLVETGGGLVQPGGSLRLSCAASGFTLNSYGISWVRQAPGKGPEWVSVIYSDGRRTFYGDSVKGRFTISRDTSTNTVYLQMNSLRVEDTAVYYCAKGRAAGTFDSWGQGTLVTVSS
VL: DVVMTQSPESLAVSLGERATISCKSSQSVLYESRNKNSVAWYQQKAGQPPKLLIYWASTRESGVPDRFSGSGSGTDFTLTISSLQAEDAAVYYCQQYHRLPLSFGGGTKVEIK

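The parent was found by panning a naive human phage display library on the peptide. Designed CDR sequences, proposed from the first random library and measured here. Their group label is 14L_Ctrl (Ctrl: baseline library sampled from a position-specific scoring matrix, with some repeated check sequences). Affinity was read by AlphaSeq, a pooled yeast mating assay with surface-displayed partners. The frequency of each diploid, read from paired DNA barcodes, reflects how well the two displayed proteins bind. A regression on co-assayed BCL2-family reference pairs converts the normalised counts of each replicate to an apparent Kd. Each pool was mated in six replicate cultures.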

Changes read parent residue, position, new residue, counted from the first residue of the VL shown. The read-out is the apparent dissociation constant on a log10 scale (nM): the lower, the stronger. The mean shown is taken over the replicates in which the pair was detected. An entry "n.d." has no value in the source: the pair was not observed among the diploids in that replicate. This suggests poor binding but is not conclusive. Of ten entries with the parent sequence, four were seen in most replicates (averages 0.34 to 2.37), three in one and three in none, so single entries are noisy. As a blank, each scFv also met three strains without target: over all light chain designs, 4% of these pairings were detected, typically at 2.64 and seldom below 1.59. The control count says in how many pairings with the empty strains this scFv gave a signal, with their mean in brackets. Values of this round are not directly comparable with the first-round values of the same sequences. The authors' rule: three or more of the six replicates give a measured affinity, fewer mean a poor binder.

changes,log10 Kd (nM) by replicate,"log10 Kd (nM), mean",signal with controls
S33F+R34D,n.d. / 0.98 / 1.47 / 0.43 / 1.53 / 1.66,1.21,0/18
V29H+K36T+T59H+R99I,n.d. / n.d. / n.d. / n.d. / 3.12 / 2.51,2.82,0/18
E32D+W56S+S62F,0.61 / 0.69 / 0.43 / 0.26 / 0.17 / 0.30,0.41,2/18 (2.99)
S33R+W56N+T59E+E61A+Y97K,n.d. / n.d. / n.d. / n.d. / n.d. / n.d.,n.d.,0/18
K24E+V29R+Y31M+W56H+S58Q+L102W+S103N,1.67 / n.d. / n.d. / 1.88 / 2.10 / n.d.,1.88,0/18
Y31L+R34E+W56H,0.13 / -0.02 / 0.03 / -0.19 / 0.06 / 0.09,0.02,2/18 (3.84)
K24W+L100K+S103M,n.d. / n.d. / n.d. / n.d. / n.d. / n.d.,n.d.,0/18
Y97P,n.d. / n.d. / n.d. / n.d. / n.d. / n.d.,n.d.,1/18 (1.26)
R34Q+E61V,1.00 / 0.82 / 0.99 / 0.87 / 0.78 / 1.20,0.94,0/18
K36D+N37P+W56S,1.31 / 1.01 / 0.28 / 0.77 / 0.66 / 1.09,0.85,2/18 (1.86)
T59E,1.69 / 1.59 / n.d. / 2.72 / 2.17 / 2.30,2.10,2/18 (1.19)
L30E+S33E+R60Q,n.d. / n.d. / n.d. / n.d. / n.d. / n.d.,n.d.,0/18
S26T+R34Q+Y97M,n.d. / n.d. / n.d. / n.d. / n.d. / n.d.,n.d.,0/18
S28L+V29K+S33T,n.d. / n.d. / n.d. / n.d. / n.d. / n.d.,n.d.,0/18
H98F,n.d. / n.d. / 0.49 / 1.82 / 3.04 / 1.23,1.65,0/18
Q27F+K36A+Q96E,n.d. / n.d. / n.d. / n.d. / n.d. / n.d.,n.d.,0/18
S25Y+R99E,n.d. / n.d. / n.d. / n.d. / n.d. / n.d.,n.d.,0/18
S26E+Y31V,n.d. / 1.95 / n.d. / 2.86 / 1.57 / n.d.,2.13,1/18 (1.86)
S25C+Y31G+V39F+W56N+H98S+S103F,0.51 / 0.34 / 0.18 / -0.03 / 0.39 / 0.21,0.27,1/18 (2.96)
S25W+R34E+K36C+A57T,1.13 / 0.98 / 1.24 / 1.78 / 1.38 / 1.15,1.27,3/18 (3.17)
R34E+S38N+W56D+S58T+R99E,1.15 / 0.67 / 0.61 / 0.91 / 0.90 / 1.20,0.91,1/18 (2.92)
E32F+N35A+K36E,n.d. / n.d. / n.d. / n.d. / n.d. / n.d.,n.d.,0/18
S25M+K36L+W56S,0.25 / 0.03 / -0.11 / -0.02 / 0.05 / 0.07,0.05,1/18 (3.64)
Y31D+S33D+T59M+S62N+Q96D,n.d. / n.d. / n.d. / n.d. / 1.86 / 2.44,2.15,0/18
E32Y+R34S+S103Q,n.d. / 1.21 / 2.94 / n.d. / 2.66 / n.d.,2.27,0/18
S26Q+R34Q+W56G+Y97I,n.d. / n.d. / n.d. / n.d. / n.d. / n.d.,n.d.,1/18 (1.89)
V29E+W56Q+E61V+Y97K,0.18 / -0.32 / -0.22 / 0.19 / -0.51 / -0.17,-0.14,0/18
Y31D+R34E,2.04 / 2.20 / 1.55 / 1.87 / 1.24 / 1.88,1.80,2/18 (2.95)
L30S+W56S+E61P+H98M,-0.13 / -0.01 / 0.11 / -0.12 / -0.16 / -0.16,-0.08,0/18
L30I+Y31N+R34F+K36T,2.34 / 2.30 / 1.77 / 1.97 / 1.68 / 2.62,2.11,0/18
K24A+K36T,n.d. / 2.12 / n.d. / n.d. / n.d. / n.d.,2.12,0/18
Y31K+T59H+E61P+S103K,n.d. / n.d. / 2.09 / n.d. / 2.66 / 3.33,2.69,1/18 (2.15)
K24H+Y31V+Q96R+L100A,n.d. / n.d. / n.d. / n.d. / n.d. / n.d.,n.d.,1/18 (2.55)
W56A+Q96G+R99G,n.d. / 3.03 / n.d. / 2.36 / 2.89 / 2.12,2.60,0/18
L30G+Y31H+K36G+W56D,0.51 / 0.27 / 0.57 / 0.21 / 0.32 / 0.74,0.44,0/18
S26G+E32D+R34L,n.d. / n.d. / n.d. / n.d. / n.d. / 1.90,1.90,0/18
L30G+R34E+K36D,1.62 / 1.03 / 2.11 / 1.42 / 1.53 / 1.47,1.53,0/18
S25W+H98M+S103A,1.94 / 1.26 / 1.43 / 0.90 / 1.27 / 2.45,1.54,0/18
K24C+E32S,n.d. / n.d. / n.d. / n.d. / n.d. / n.d.,n.d.,0/18
L30M+W56N+Y97P,2.11 / 1.41 / 0.85 / 1.49 / 0.98 / 1.10,1.32,0/18

The closing 4 entries, repeated:

{"changes": "L30G+R34E+K36D", "log10 Kd (nM) by replicate": "1.62 / 1.03 / 2.11 / 1.42 / 1.53 / 1.47", "log10 Kd (nM), mean": "1.53", "signal with controls": "0/18"}
{"changes": "S25W+H98M+S103A", "log10 Kd (nM) by replicate": "1.94 / 1.26 / 1.43 / 0.90 / 1.27 / 2.45", "log10 Kd (nM), mean": "1.54", "signal with controls": "0/18"}
{"changes": "K24C+E32S", "log10 Kd (nM) by replicate": "n.d. / n.d. / n.d. / n.d. / n.d. / n.d.", "log10 Kd (nM), mean": "n.d.", "signal with controls": "0/18"}
{"changes": "L30M+W56N+Y97P", "log10 Kd (nM) by replicate": "2.11 / 1.41 / 0.85 / 1.49 / 0.98 / 1.10", "log10 Kd (nM), mean": "1.32", "signal with controls": "0/18"}

Values reported by Li et al. 2023, doi:10.1038/s41467-023-39022-2 (FLAb copy).